In US10709764B2, “Use of compounds with thrombopoietic activity to promote bone growth and healing” (Osteofuse, Inc., priority 2010, dated 2020):

Tested on: critical sized femoral defect
Assay: Mouse critical sized femoral defect with scaffold, x-ray follow-up
Format: in vivo, C57BL/6 male mice
Settings: 2 weeks postoperatively; TPO 1 μg, BMP-2 4 μg in scaffold
From the text: While it is thought that BMP-2 works by activating osteoblasts, successful fracture repair requires remodeling and thus requires elevated osteoclast activity as well. Therefore, isolated increases in osteoblastic activity without up-regulation of osteoclastic remodeling may increase the incidence of heterotopic bone which has been reported as a complication with BMP treatment. […] A critical sized femoral defect was created in the right femur of ten-week old C57BL/6 male mice. Our scaffold was inserted into the defect site. There were 3 groups: untreated controls (n=7), TPO treated scaffolds (1 μg, n=8), and BMP-2 treated scaffolds (4 μg, n=5). […] Referring now to FIG. 6, a critical sized femoral defect was created in the right femur of ten week old C57BL/6 male mice. A scaffold was inserted into the defect site. There were 3 groups untreated controls (n=7), TPO treated scaffolds (1 μg, n=8), and BMP-2 treated scaffolds (4 μg, n=5).

B1: bone morphogenetic protein-2 (protein, UniProt P12643 283-396, looked up)
Bone morphogenetic protein 2: QAKHKQRKRLKSSCKRHPLYVDFSDVGWNDWIVAPPGYHAFYCHGECPFPLADHLNSTNHAIVQTLVNSVNSKIPKACCVPTELSAISMLYLDENEKVVLKNYQDMVVEGCGCR
bridging callus formation (x-ray): bridging callus formation by 2 weeks
